Experimental data from patent publication US20150209364A1, “METHOD FOR TREATING EPIDERMOID CARCINOMA” (Johnpro Biotech Inc., priority 2011, published 2015).

Tested on: gefitinib-resistant A431 cells
Test: Annexin V/PI cell apoptosis assay in A431 cells
Assay type: cell-based
Settings: 48 hours, 5 μM gefitinib, 10 μM chloroquine, 10 nM rapamycin, FIG. 1
Protocol: Each experiment was performed in triplicate, and the results were expressed as mean±SD.

For `COc1cc2ncnc(Nc3ccc(F)c(Cl)c3)c2cc1OCCCN1CCOCC1` [gefitinib], which “percentage of apoptotic cells” value is on record?
Its value is “about 50%”.
